Tests used:
[1] = Pharmacokinetic analysis of plasma DOX after intravenous injection; assay type: in vivo, Kunming mice; details: mice, i.v.
[2] = Tissue distribution of DOX after intravenous injection; assay type: in vivo; details: mice, i.v. 5 mg/kg
Method in brief: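 Male Kunming mice (~25 g, 6–8 weeks) received 5 mg/kg DOX equivalent intravenously. Heart, liver, spleen and kidney were collected at 30 min and 3 h. Tissue was homogenized in ethanol/HCl/water and centrifuged at 12,000 rpm for 15 min. DOX in the supernatant was measured by fluorescence spectrophotometry. n=4; mean ± SD.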

In the case of “folate-polyethylene glycol-immunoglobulin G-doxorubicin [FA-PEG-IgG-DOX]”, the “circulating time, times longer than FA-IgG-DOX” value [1] was 2 times, the “DOX concentration in the liver at 0.5 h” value ([2]; 0.5 h) was “slightly lower DOX concentration” and the “change of DOX distribution in the liver at 3 h” value ([2]; 3 h versus 0.5 h) was “increased DOX concentration”.
